Test results from US20210361618A1, “TRIPLET COMBINATION FORMULATIONS AND METHODS FOR TREATING OR REDUCING THE RISK OF CARDIOVASCULAR DISEASE” (priority 2017, published 2021).

System: monkey
Assay: Preclinical monkey studies (hypoglycemia and metabolic acidosis)

CC(C)(CCCCCC(O)CCCCCC(C)(C)C(=O)O)C(=O)O [Bempedoic acid, 8-hydroxy-2,2,14,14 tetramethylpentadecanedioic acid]
Exposures in monkey studies relative to those associated with the 180-mg dose in Phase 1 and 2 clinical studies (monkey studies with hypoglycemia and metabolic acidosis): ≥ 17 times | reversibility of hypoglycemia (subsequent monkey studies): reversible with discontinuation of dosing and oral glucose administration
